# scFv variants of Ab-14 (light chain) against a SARS-CoV-2 spike peptide

The target is the same throughout: PDVDLGDISGINAS, from the HR2 region of SARS-CoV-2 spike.

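The starting antibody came from a phage panning campaign against this peptide. The variants were designed computationally from a first round of random CDR variants and then made and measured. Their group label is 14L_En_HC (En: ensemble of fine-tuned language models; HC: hill climbing; a sequence that several methods proposed may carry one label only). Affinity was read by AlphaSeq, a pooled yeast mating assay with surface-displayed partners. The frequency of each diploid, read from paired DNA barcodes, reflects how well the two displayed proteins bind. The ratio of observed to expected reads was calibrated, replicate by replicate, on BCL2-family standards whose Kd was known from biolayer interferometry. Mating was done six times.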

Ab-14 is the parent antibody, in scFv form: VH, then a 15-residue (Gly4Ser)3 linker, then VL. The heavy chain is unchanged in all variants.
VH: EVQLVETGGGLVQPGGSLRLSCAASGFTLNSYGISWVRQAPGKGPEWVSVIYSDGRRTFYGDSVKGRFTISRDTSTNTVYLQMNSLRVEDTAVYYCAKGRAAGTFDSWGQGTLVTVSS
VL: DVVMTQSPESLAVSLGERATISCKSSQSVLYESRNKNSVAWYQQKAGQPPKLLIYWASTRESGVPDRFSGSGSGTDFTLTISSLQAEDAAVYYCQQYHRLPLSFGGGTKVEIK

Variants are written as CDR1, CDR2 and CDR3 of the light chain (limits as in the source). Parent: KSSQSVLYESRNKNSVA, WASTRES, QQYHRLPLS.
Values are log10 of the apparent Kd in nM; lower means stronger binding.
"ND" marks a missing value. The strain was present, yet no cells mated with the target were sequenced in that replicate, which points to weak or no binding.
In the paper, a design with two or fewer of six values counts as a poor binder.
The range of this assay differs from that of the first round, and the authors advise against merging the two.
As a blank, each scFv also met three strains without target: over all light chain designs, 4% of these pairings were detected, typically at 2.64 and seldom below 1.59. For each scFv, signals with the empty controls are counted beside the result, with their mean in brackets.

| # | CDR-L1 | CDR-L2 | CDR-L3 | log10 Kd (nM) by replicate | signal with controls |
|---|---|---|---|---|---|
| 1 | MISQSFLIGSRAKNSVA | QTSTREE | QQYDRLPLS | 0.32 / 0.14 / 0.18 / -0.07 / 0.09 / 0.18 | 0/18 |
| 2 | KLSQVTNSEHKVKNSIA | EMVTREK | QQYDRLPLI | 1.09 / 0.21 / 1.13 / 1.46 / 0.96 / 1.04 | 0/18 |
| 3 | HISYSMAHLSKNKNSVA | NQQTRES | QQYHHLPLS | 0.89 / 0.91 / 1.13 / 0.98 / 1.58 / 1.58 | 2/18 (2.16) |
| 4 | TVSQVHEMLSHAKNSVA | DMNTRES | QQYDRLPLS | 0.98 / 1.27 / 0.80 / 1.54 / 1.00 / 1.24 | 0/18 |
| 5 | KLRQSTLIESFNKNNVA | EMSTRES | QSYDRLPLS | 0.92 / 0.68 / 0.79 / 1.28 / 1.05 / 1.25 | 0/18 |
| 6 | HISQSVGMTSFQKNSVA | ENSTRED | QQYDRLPLS | 2.82 / 2.62 / 1.77 / 1.98 / 3.19 / 3.14 | 5/18 (3.38) |
| 7 | KIAQSMNMTSHHINSVA | QSTTREE | QQYNHLPLS | 1.30 / 1.26 / 1.08 / 1.16 / 0.98 / 1.37 | 1/18 (2.38) |
| 8 | MFSQSVMYGSFARNSVA | QTSTRES | QQYDRLPLS | 1.35 / 0.90 / 0.37 / 0.95 / 1.13 / 1.21 | 2/18 (2.49) |
| 9 | IISGVMVMESKHKNSVA | NAETREY | QHYDRLPLS | 1.31 / 2.43 / 1.40 / 1.47 / 1.56 / 1.52 | 0/18 |
| 10 | KLGDMVHTLSRNKNNIA | DMRTRES | QQYYRLPLS | -0.20 / -0.37 / -0.58 / -0.38 / -0.21 / -0.29 | 2/18 (2.99) |
| 11 | MFSQLTYTGSFTRNAVA | QASTREN | QQYHHLPLS | 0.82 / 0.91 / 0.42 / 0.61 / 0.72 / 1.08 | 0/18 |
| 12 | HLSQSVDLESVHKNSIA | DLMTRES | QQYDRLPLS | 0.39 / 0.41 / 0.60 / 0.52 / 0.48 / 0.64 | 0/18 |
| 13 | MISDLTMYGSRNVNSVA | DLSHRGS | QQYHRLPLS | -0.09 / -0.18 / -0.25 / -0.28 / -0.25 / 0.03 | 0/18 |
| 14 | MISDLTMYGSRNVNSVA | DLSTRGR | QQYDRLPLS | 0.65 / 0.40 / 0.27 / 0.13 / 0.47 / 0.37 | 3/18 (2.94) |
| 15 | TLSDLMYMESRNVNSVA | DLVKRED | QQYHRLPLS | 0.34 / 0.17 / 0.11 / 0.18 / 0.13 / 0.17 | 1/18 (2.73) |
| 16 | KLGDMVHTESRKKNSIA | DMRTRES | QQYYRLPLS | 0.91 / 0.78 / 0.85 / 0.81 / 0.91 / 0.99 | 0/18 |
| 17 | HMSQVTMYGYWNKNSVA | QTSTREP | QQYDRLPLS | 1.57 / 2.75 / 3.23 / 2.98 / 2.39 / 2.34 | 0/18 |
| 18 | HISMSMNYLSRNKNSIA | EESTRED | QQYHRLPLS | 0.03 / -0.24 / -0.03 / -0.44 / -0.25 / -0.04 | 0/18 |
| 19 | KIGSMTNGEKFQSNSVA | QTSTREE | QQYHRLPLS | 0.42 / 0.37 / -0.16 / 0.13 / 0.00 / 0.01 | 2/18 (2.22) |
| 20 | HISQSVGMTSRNRNSVA | ENSTRED | QQYDRLPLS | 1.47 / 3.10 / 2.15 / 1.56 / 2.11 / 2.10 | 0/18 |
| 21 | KLAQSVGMTSHHINSVA | QSTTREE | QQYNRLPLS | 0.17 / 0.19 / 0.16 / -0.22 / 0.34 / 0.26 | 4/18 (2.90) |
| 22 | HLSDTVMQGSYYKSSVA | QESTRAD | QQYHRLPLS | ND / ND / ND / ND / 1.40 / ND | 0/18 |
| 23 | KIGGVTNGISRSKNSVA | EQSTRES | QQYNRLPLS | 0.96 / 0.41 / 0.75 / 0.88 / 0.59 / 2.01 | 1/18 (2.33) |
| 24 | KLRMSTAYLSENKNSVA | ELTTRGN | QQYFRLPLS | 0.99 / 0.59 / 0.31 / 0.50 / 0.42 / 0.69 | 0/18 |
| 25 | ILYDSVGTLSRNHNSVA | DNSTRES | QQYDRLPLS | 2.33 / 1.40 / ND / 1.59 / 1.50 / 2.12 | 0/18 |
| 26 | KLSQFVGYESRNKSRVA | DNSTRES | QQYDRLPLS | ND / 4.82 / ND / ND / 2.26 / ND | 1/18 (2.25) |
| 27 | KLSMQYRYETEEKNSIA | ELVTRMS | QQYHRLPLS | 0.42 / ND / ND / 0.05 / ND / -0.20 | 0/18 |
| 28 | SLSQSTHIESFNKNNVA | EMTTRES | QSYDRLPLS | ND / 1.64 / 1.63 / 1.51 / 1.69 / 1.76 | 1/18 (1.74) |
| 29 | KLGDMVHTMSRNKNSIA | DMRTRES | QQYYRLPLS | 0.23 / 0.45 / -0.09 / -0.46 / -0.11 / 0.06 | 0/18 |
| 30 | KLSQNVLFWGHAINSVA | EMETREN | QQYDRLPLS | 1.12 / 0.95 / 0.82 / 1.09 / 0.90 / 0.86 | 3/18 (2.35) |
| 31 | KISQTFNVGTSNKNSLA | EMSTRGF | QDYHRLPLS | 1.08 / ND / 0.39 / 0.59 / 1.49 / 1.25 | 0/18 |
| 32 | HLLQEVTGHSRNRNSVA | HNSTRED | QQYDRLPLS | 1.96 / 3.83 / ND / ND / 2.74 / 2.78 | 1/18 (2.93) |
| 33 | TIAQSMLYLSNLKNSIA | QAETRED | QQYHRLPIM | 0.51 / 1.16 / 0.63 / 0.44 / 0.05 / 0.87 | 0/18 |
| 34 | NISESMYFQSRNGNNIA | EMSTRER | QHYHRLPLS | 1.97 / 1.58 / 1.47 / 1.02 / 1.28 / 1.60 | 2/18 (2.83) |
| 35 | KIGGVTNGISRSKNSVA | EQSTRED | QQYDRLPLT | 0.24 / 0.15 / 0.66 / -0.11 / 0.16 / 0.57 | 0/18 |
| 36 | TLGQVTMVESYNKDSVA | QASTRLE | QDYHRLPLS | 1.60 / 0.52 / 0.85 / 1.26 / 0.93 / 1.04 | 0/18 |
| 37 | IISQSMLYESATHNSIA | QTSTREE | QQYAHLPLI | 1.25 / 1.48 / 0.96 / 1.01 / 1.10 / 1.67 | 1/18 (2.46) |
| 38 | TIGPMLMTEMHNKNNVA | GMQTRER | QQYHRLPLS | 0.07 / 0.11 / 0.44 / 0.57 / 0.14 / 0.11 | 1/18 (1.85) |
| 39 | MFSQLVYTGSRTKNAVA | QASTREN | QQYHRLPLI | 1.36 / 1.80 / 1.04 / 0.70 / 1.28 / 1.68 | 2/18 (3.21) |
| 40 | TISQSVNMTSHGKNSVA | QAEMRES | QQYDRLPLS | 1.24 / 0.94 / 1.28 / 1.19 / 1.51 / 1.21 | 0/18 |
| 41 | HISQSVMTESVWRNSVA | HQSTREQ | QQYDRLPLS | 1.24 / 0.95 / 1.01 / 1.06 / 1.07 / 1.34 | 2/18 (2.52) |
| 42 | TISQSFMMENQFKNSVA | QASTREQ | QCYDRLPLS | 2.32 / 2.60 / 2.30 / 2.80 / 2.47 / 2.73 | 3/18 (2.71) |
| 43 | KLSQMVGGESRNKSSLA | DNSTREY | QQYHRLPLS | 2.02 / 1.80 / 1.82 / 2.06 / 2.97 / 2.16 | 1/18 (4.05) |
| 44 | TISYSALMTGLNRNSVA | QAEERLD | QQYNRLPLS | ND / ND / 1.65 / 2.60 / 1.28 / 1.73 | 0/18 |
| 45 | KLGDMVHTESRHKNSIA | DMRTRES | QQYYRLPLS | 0.59 / 0.40 / 0.52 / 0.29 / 0.50 / 0.57 | 2/18 (2.18) |
| 46 | ALSQSMDMTSRNKNSVA | DLTTRGN | QQYHRLPLS | 0.32 / 0.10 / 0.18 / 0.10 / 0.10 / 0.33 | 1/18 (2.69) |
| 47 | TISQMWLGESRNRNSVA | QTSTRES | QSYDRLPLS | 0.44 / 0.49 / 0.65 / 0.71 / 0.70 / 0.94 | 2/18 (2.29) |
| 48 | SLMQVGGYELNEHNSIA | DLRTRES | QQYHRLPLS | 0.24 / 0.08 / -0.11 / -0.06 / -0.01 / 0.02 | 1/18 (3.42) |

For reference, 3 entries of the list once more:

{"CDR-L1": "KLGDMVHTESRKKNSIA", "CDR-L2": "DMRTRES", "CDR-L3": "QQYYRLPLS", "log10 Kd (nM) by replicate": "0.91 / 0.78 / 0.85 / 0.81 / 0.91 / 0.99", "signal with controls": "0/18"}
{"CDR-L1": "HLSQSVDLESVHKNSIA", "CDR-L2": "DLMTRES", "CDR-L3": "QQYDRLPLS", "log10 Kd (nM) by replicate": "0.39 / 0.41 / 0.60 / 0.52 / 0.48 / 0.64", "signal with controls": "0/18"}
{"CDR-L1": "KLGDMVHTLSRNKNNIA", "CDR-L2": "DMRTRES", "CDR-L3": "QQYYRLPLS", "log10 Kd (nM) by replicate": "-0.20 / -0.37 / -0.58 / -0.38 / -0.21 / -0.29", "signal with controls": "2/18 (2.99)"}

From the AlphaSeq antibody data of Li et al. 2023 (doi:10.1038/s41467-023-39022-2), copy in the FLAb collection.